Patent publication EP0655439A2, “5,6-Bicyclic glycoprotein IIb IIIa antagonists useful in inhibition of platelet aggregation” (ELI LILLY AND COMPANY, priority 1993, dated 1995)

Protein sequences, listed by entry. Tags and fused reporters are not part of them. Residues count along the entry.
UniProt P05106, 27-788 limits assumed: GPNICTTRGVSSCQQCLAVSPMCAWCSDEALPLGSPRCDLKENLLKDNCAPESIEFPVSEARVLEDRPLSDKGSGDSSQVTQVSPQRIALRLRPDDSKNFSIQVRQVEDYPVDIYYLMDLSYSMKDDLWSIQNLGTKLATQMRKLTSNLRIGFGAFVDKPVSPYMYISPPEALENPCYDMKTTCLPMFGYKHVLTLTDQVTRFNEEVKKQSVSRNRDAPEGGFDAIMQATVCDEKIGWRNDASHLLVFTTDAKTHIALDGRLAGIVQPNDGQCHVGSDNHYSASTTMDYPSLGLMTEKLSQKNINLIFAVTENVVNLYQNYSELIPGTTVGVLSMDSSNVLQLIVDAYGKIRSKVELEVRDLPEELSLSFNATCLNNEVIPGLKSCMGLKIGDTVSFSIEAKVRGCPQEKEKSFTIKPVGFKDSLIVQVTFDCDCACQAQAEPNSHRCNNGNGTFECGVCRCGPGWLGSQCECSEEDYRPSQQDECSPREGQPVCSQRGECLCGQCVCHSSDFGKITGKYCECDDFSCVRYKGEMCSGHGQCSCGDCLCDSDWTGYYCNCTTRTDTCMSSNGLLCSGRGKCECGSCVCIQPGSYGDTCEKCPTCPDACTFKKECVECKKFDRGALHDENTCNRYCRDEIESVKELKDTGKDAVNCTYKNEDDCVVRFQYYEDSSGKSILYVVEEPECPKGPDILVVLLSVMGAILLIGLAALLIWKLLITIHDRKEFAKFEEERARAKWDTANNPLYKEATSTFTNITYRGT
UniProt P08514, 32-887 limits assumed: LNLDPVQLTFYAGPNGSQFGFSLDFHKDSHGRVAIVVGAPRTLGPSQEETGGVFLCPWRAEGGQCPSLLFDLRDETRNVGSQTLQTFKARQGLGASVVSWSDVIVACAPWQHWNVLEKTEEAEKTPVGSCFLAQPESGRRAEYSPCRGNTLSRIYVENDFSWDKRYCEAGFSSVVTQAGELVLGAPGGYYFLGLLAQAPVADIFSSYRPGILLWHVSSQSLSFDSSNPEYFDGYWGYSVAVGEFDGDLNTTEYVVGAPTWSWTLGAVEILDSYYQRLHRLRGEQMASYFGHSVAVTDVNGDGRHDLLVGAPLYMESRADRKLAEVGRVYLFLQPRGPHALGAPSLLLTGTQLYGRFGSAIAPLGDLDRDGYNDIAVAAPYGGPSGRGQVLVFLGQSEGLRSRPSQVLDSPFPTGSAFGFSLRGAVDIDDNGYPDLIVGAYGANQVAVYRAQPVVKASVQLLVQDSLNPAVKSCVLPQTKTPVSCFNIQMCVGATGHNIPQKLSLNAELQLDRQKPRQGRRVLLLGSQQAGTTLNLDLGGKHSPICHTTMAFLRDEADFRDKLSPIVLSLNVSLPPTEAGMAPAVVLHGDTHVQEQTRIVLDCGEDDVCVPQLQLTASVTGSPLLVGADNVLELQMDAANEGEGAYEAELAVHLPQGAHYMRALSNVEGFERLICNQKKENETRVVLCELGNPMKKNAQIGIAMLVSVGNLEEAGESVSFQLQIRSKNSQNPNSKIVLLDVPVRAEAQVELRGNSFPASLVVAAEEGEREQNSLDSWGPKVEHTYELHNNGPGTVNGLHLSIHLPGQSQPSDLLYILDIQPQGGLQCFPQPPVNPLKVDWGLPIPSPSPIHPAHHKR
UniProt P08514, 891-1039 partner limits assumed: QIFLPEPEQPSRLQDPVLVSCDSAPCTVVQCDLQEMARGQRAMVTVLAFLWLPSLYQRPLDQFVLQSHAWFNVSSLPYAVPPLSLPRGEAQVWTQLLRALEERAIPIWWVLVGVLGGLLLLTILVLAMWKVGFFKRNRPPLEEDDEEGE

How the values were obtained:
GPIIb-IIIa = GPIIb-IIIa (Homo sapiens, UniProt P05106+P08514); test: GPIIb-IIIa ELISA assay (inhibition of fibrinogen binding to immobilized receptor); settings: read-out: ELISA IC50; purified platelet GPIIb-IIIa coated on plates; biotinylated fibrinogen 10 nM; 3 hours at 25 °C; tested form: TFA
[1] = system: human platelet-rich plasma; test: Platelet aggregation assay (PRP), Aggregation-Human/PRP/ADP; assay type: cell-based; settings: read-out: PRP IC50, 1 minute at 37°C before aggregating agent, most often ADP 5 µM, tested form: TFA
Protocol: In addition to the ELISA GPllb-Illa assay previously described the Aggregation-Human/PRP/ADP Assay is useful for evaluating therapeutic compounds.
Platelet-rich plasma was prepared from healthy human volunteers for use in determining inhibition of platelet aggregation by the compounds. Blood was collected via a 21 gauge butterfly cannula, using a two-syringe technique into 1/10 volume of 10% trisodium citrate.
Platelet-rich plasma was prepared at room temperature by centrifugation of the citrated whole blood at 100 x g for 15 minutes. The platelet rich plasma contained approximately 200-400,000 platelets/µl.
Platelet-poor plasma was prepared by centrifugation of citrated whole blood at 12,000 x g for 2 minutes.
Platelet aggregation was assayed in a 4-channel platelet aggregation profiler (PAP-4, Biodata, Hatboro, PA) according to the manufacturers directions. Inhibition of platelet aggregation was studied by adding varying amounts of test compounds to stirred human platelet-rich plasma. Specifically, the human platelet-rich plasma was incubated with test compounds for 1 minute at 37°C prior to the addition of a variety of aggregating agents most often ADP 5 µM, but also 1 µg/ml collagen, 1 µM U46619 or 1 µM platelet activating factor.

CCCC(Cc1ccc(CNC(=O)c2cc3cc(C(=N)N)ccc3[nH]2)cc1)C(=O)O (centres unmarked)
IC50 (GPIIb-IIIa): 68 µM
IC50 [1]: > 100 µM
